# Biological target: T1, HDAC8 (Homo sapiens, UniProt Q9BY41)
# T1 construct: purchased BPS Bioscience
# T1 sequence (Q9BY41 1-377): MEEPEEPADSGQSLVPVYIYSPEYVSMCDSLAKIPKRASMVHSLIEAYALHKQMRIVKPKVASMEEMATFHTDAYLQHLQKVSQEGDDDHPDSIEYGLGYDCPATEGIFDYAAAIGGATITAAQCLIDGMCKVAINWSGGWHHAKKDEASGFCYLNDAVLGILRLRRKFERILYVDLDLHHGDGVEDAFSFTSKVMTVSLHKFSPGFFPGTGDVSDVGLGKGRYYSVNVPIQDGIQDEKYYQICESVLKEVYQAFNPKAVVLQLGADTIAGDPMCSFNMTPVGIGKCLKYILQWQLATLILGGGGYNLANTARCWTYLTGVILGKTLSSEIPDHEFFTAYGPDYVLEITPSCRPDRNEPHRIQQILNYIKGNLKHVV
# Experiment: In vitro HDACs inhibitory assay (fluorogenic substrate), HDAC8
# Format: biochemical
# Conditions: mean ± SD, n ≥ 3
# Description: All the HDAC enzymes were brought from BPS Bioscience. Ten μL of enzyme solution (HDAC1, HDAC6 or HDAC8) was mixed with different concentrations of tested compound (50 μL). The mixture was incubated at 37 °C for 5 min, followed by adding 40 μL fluorogenic substrate (Boc-Lys(acetyl)-AMC for HDAC1 and HDAC6, Boc-Lys(triflouroacetyl)-AMC for HDAC8). After incubation at 37 °C for 30 min, the mixture was quenched by addition of 100 μL of developer containing trypsin and Trichostatin A. Over another incubation at 37 °C for 20 min, fluorescence intensity was measured using a microplate reader at excitation and emission wavelengths of 390 nm and 460 nm, respectively. The inhibition rates were calculated from the fluorescence intensity readout of tested wells relative to those of control wells, and the IC50 values were calculated using Prism non-linear curve fitting method.
compound,measurement,value
O=C(CCCCCCC(=O)Nc1ccccc1)NO [SAHA],IC50,> 7 µM

# From PMC7662900, “Development of a Bestatin-SAHA Hybrid with Dual Inhibitory Activity against APN and HDAC” (Molecules, 2020)
